Measurements reported in PubChem BioAssay AID504803 (The Scripps Research Institute Molecular Screening Center, 2011).
The list shows a part of the results, in another mix than the full data. The source made the active and inactive calls. Rule as the data show it: active = inhibition above about 36%; inactive = the rest.

Chains of the proteins cited; added tags and fusions are not shown.
UniProt Q92743, whole entry, looked up: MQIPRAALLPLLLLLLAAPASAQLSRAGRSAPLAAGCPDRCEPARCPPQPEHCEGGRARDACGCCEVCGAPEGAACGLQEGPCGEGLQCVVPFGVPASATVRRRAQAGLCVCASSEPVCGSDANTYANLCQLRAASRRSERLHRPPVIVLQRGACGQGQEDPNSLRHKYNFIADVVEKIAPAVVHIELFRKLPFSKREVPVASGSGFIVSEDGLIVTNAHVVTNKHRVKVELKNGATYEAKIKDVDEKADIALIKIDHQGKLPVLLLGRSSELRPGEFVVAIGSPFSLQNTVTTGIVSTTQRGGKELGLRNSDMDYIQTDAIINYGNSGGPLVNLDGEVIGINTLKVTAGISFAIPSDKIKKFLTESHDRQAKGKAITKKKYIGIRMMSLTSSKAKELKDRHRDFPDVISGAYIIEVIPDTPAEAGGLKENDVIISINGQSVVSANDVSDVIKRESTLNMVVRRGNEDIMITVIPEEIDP

Each compound was assayed against Serine protease HTRA1 (Homo sapiens) (UniProt Q92743) (assay: HTRA1 serine protease inhibitors, primary screen, biochemical, fluorescence polarization, HTS (AID 504803;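 also: 0% = enzyme with DMSO and 100% = wells lacking enzyme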)). Settings: recombinant HTRA1, FP-rhodamine activity-based probe, at 5.96 µM, stronger effect = higher value.

| SMILES | inhibition |
| --- | --- |
| CC(=O)Nc1ccc([As](=O)(O)O)cc1 | inactive: 3.96% |
| O=C(O)c1ccccc1[As](=O)(O)O | inactive: 2.79% |
| CCCC1OP(N)(=O)OCC1CC (stereo not given) | inactive: 6.07% |
| Cc1cc(SC(NC(=O)c2ccc(F)cc2)C(Cl)(Cl)Cl)ncn1 (stereo not given) | inactive: 2.11% |
| CCOP(=O)(Nc1ccccc1)OCC | inactive: 0.04% |
| Cc1ccc(NP(=O)(Oc2ccccc2F)Oc2ccccc2F)nc1 | inactive: 11.4% |
| CN(C(=O)Cc1ccc(Cl)c(Cl)c1)[C@H]1CCCC[C@@H]1N1CCCC1 | inactive: -3.28% |
| Oc1ccccc1CNc1ccccn1 | inactive: 1.17% |
| O=C(NC(Sc1ccncn1)C(Cl)(Cl)Cl)c1ccccc1 (stereo not given) | inactive: -0.7% |
| Nc1cc(N)c2nonc2c1[N+](=O)[O-] | inactive: 2.74% |
| CC(C)CC(=O)NC(Sc1ccc(Cl)cc1)C(Cl)(Cl)Cl (stereo not given) | inactive: -14.3% |
| CN(C(=O)Cc1ccc(Cl)c(Cl)c1)[C@H]1CCCC[C@H]1N1CCCC1 | inactive: 6.01% |
| Cc1ccc(N/C(=N/P(=O)(N2CCOCC2)N2CCOCC2)N2CCOCC2)cc1 | inactive: -14.8% |
| NC(=O)c1cc([N+](=O)[O-])cc([N+](=O)[O-])c1N | inactive: 11.3% |
| CN1CCCC(OC(=O)C(c2ccccc2)c2ccccc2)C1 (stereo not given) | inactive: -0.68% |
| Clc1ccc(Cl)c(NC2=NCC(CBr)S2)c1 (stereo not given) | inactive: -9.62% |
| COc1ccccc1OP(=O)(Nc1ccc(C)cn1)Oc1ccccc1OC | inactive: -6.28% |
| O=[N+]([O-])c1cc(Oc2ccc([N+](=O)[O-])cc2C(F)(F)F)cc([N+](=O)[O-])c1 | inactive: -2.77% |
| COc1ccc(N/C(=N/P(=O)(N2CCOCC2)N2CCOCC2)N2CCOCC2)cc1 | inactive: 3.73% |
| Cc1c2c(nc3ccccc13)SC(C(Cl)Cl)C2 (stereo not given) | inactive: -12.9% |
| O=C(OC1CN2CCC1CC2)C12CC3CC(CC(C3)C1)C2 (stereo not given) | inactive: 1.73% |
| Cc1cc(=O)[nH]c(N[N+](=O)[O-])n1 | inactive: 7.75% |

| SMILES | inhibition |
| --- | --- |
| O=P1(N(CCCl)CCCl)OCCCN1CCCl (stereo not given) | inactive: 1.87% |
| O=P1(N(CCCl)CCCl)Nc2ccccc2N1 | inactive: -0.86% |
| COc1ccc2nc(NP(=O)(c3ccccc3)c3ccccc3)sc2c1 | inactive: -10.2% |
| COc1cc(I)ccc1[As](=O)(O)O | inactive: 0.16% |
| ClCCSc1nnc(-c2cccnc2)o1 | inactive: 4.04% |
| COC(=O)C1(C)COP(=O)(N2CCCCCC2)OC1 (stereo not given) | inactive: 3.51% |
| CC(C)c1ccc(OP(=O)(Nc2ccccn2)Oc2ccccc2F)cc1 (stereo not given) | inactive: -2.58% |
| CCN(CC)C(=S)SC(NC=O)C(Cl)(Cl)Cl (stereo not given) | inactive: -0.38% |
| O=C(OC1CN2CCC1CC2)c1cccc2[nH]cnc12 (stereo not given) | inactive: -2.29% |
| O=[N+]([O-])c1cc([N+](=O)[O-])c(-c2ccn[nH]2)s1 | inactive: 0.2% |
| O=[As](O)(c1ccc(O)cc1)c1ccccc1O | inactive: 1.85% |
| C[As](=O)(O)c1cccc(C(=O)O)c1 | inactive: -1.19% |
| O=[N+]([O-])c1ccc(-c2cc([N+](=O)[O-])c(O)c([N+](=O)[O-])c2)cc1 | inactive: -11.9% |
| COc1cc(C(=O)NCC2(N3CCOCC3)CCCCC2)ccc1OCC(C)C | inactive: -1.45% |
| Cc1ccc(OP(=O)(Nc2ccc([N+](=O)[O-])cn2)Oc2ccc(C)cc2)cc1 | inactive: 6.94% |
| Cc1ccc2nc3c(c(C)c2c1)CC(C(Cl)Cl)S3 (stereo not given) | inactive: -26.3% |
| CCOC(=O)Nc1cccc([As](=O)(O)O)c1 | inactive: -3.75% |
| O=P(Nc1ccccn1)(c1cccc2ccccc12)c1cccc2ccccc12 | inactive: -19.9% |
| Cc1cc(SC(NC=O)C(Cl)(Cl)Cl)ncn1 (stereo not given) | inactive: 5.43% |
| O=[N+]([O-])c1ccc(Nc2ccc(Oc3ccc([N+](=O)[O-])cc3[N+](=O)[O-])cc2)c([N+](=O)[O-])c1 | inactive: -6.1% |
| CCOC(=O)Nc1ccc([As](=O)(O)O)c(O)c1 | inactive: 2.15% |
| O=C(O)C(O)c1ccc(N(CCCl)CCCl)cc1 (stereo not given) | inactive: -0.73% |

| SMILES | inhibition |
| --- | --- |
| CC1CCNP(=O)(N(CCCl)CCCl)O1 (stereo not given) | inactive: 3.64% |
| COP(=O)(OC)N1CC1c1ccccc1 (stereo not given) | inactive: 8.97% |
| CCCCOc1ccc(C(=O)NCC2(N3CCCCC3)CCCCC2)cc1OC | inactive: 4.01% |
| Cc1cc(SC(NC(=O)c2ccccc2)C(Cl)(Cl)Cl)nc(C(C)C)n1 (stereo not given) | inactive: -5.26% |
| O=C(OC1CN2CCC1CC2)c1cccc([N+](=O)[O-])c1 (stereo not given) | inactive: 4.57% |
| CSc1ccc(Nc2c([N+](=O)[O-])cc([N+](=O)[O-])cc2[N+](=O)[O-])cc1 | active: 48.7% |
| CCOC(=O)c1ccc(NC(=O)C(C)(CCl)SC)cc1 (stereo not given) | inactive: 7.48% |
| CCC(C)N(CC(C)C)C(=S)SC(NC(C)=O)C(Cl)(Cl)Cl (stereo not given) | inactive: 7.25% |
| COP1(=S)c2c(C)nn(CCC#N)c2N=C(c2ccc(F)cc2)N1C (stereo not given) | inactive: -0.22% |
| O=C(O)C(=O)c1ccc(N(CCCl)CCCl)cc1 | inactive: -1.52% |
| O=C(COc1ccccc1)OC1CN2CCC1CC2 (stereo not given) | inactive: 2.16% |
| O=C(Nc1ccncc1[N+](=O)[O-])c1ccc([N+](=O)[O-])cc1[N+](=O)[O-] | inactive: -1.9% |
| COc1ccccc1CNC(=O)COC(=O)C(O)(c1ccccc1)c1ccccc1 | inactive: -7.89% |
| CC(C)/C=N\N=C(\N)N[N+](=O)[O-] | inactive: -1.22% |
| CN(C(=O)Cc1ccc(Cl)c(Cl)c1)[C@@H]1CCCC[C@H]1N1CCCC1 | inactive: 4.5% |
| CC1(CBr)Cn2c(nc3ccccc3c2=O)S1 (stereo not given) | inactive: -3.04% |
| O=P1(Nc2ccccn2)COc2ccccc2OC1 | inactive: -3.8% |
| CCC1=CC2Cc3nc4ccc(Cl)cc4c(N)c3C(C1)C2 (stereo not given) | inactive: -9.2% |
| CCOP(=O)(NC(=NC(C)c1ccccc1)NC(C)c1ccccc1)OCC (stereo not given) | inactive: 4.92% |
| CCOP(=O)(Nc1ccc(C)cn1)OCC | inactive: 4.42% |
| O=P1(N(CCCl)CCCl)NCCC(C(F)(F)F)O1 (stereo not given) | inactive: 1.22% |
